Data taken from patent publication US20230293535A1, “ERBB/BTK INHIBITORS” (Dizal (Jiangsu) Pharmaceutical Co., Ltd., priority 2018, published 2023).

Chains of the proteins cited; added tags and fusions are not shown. A line that says so, or that is headed by a name, gives the form on record, which may keep a tag or linker. Residues count along the entry.
UniProt P00533, with tags, fused parts or gaps INS769ASV: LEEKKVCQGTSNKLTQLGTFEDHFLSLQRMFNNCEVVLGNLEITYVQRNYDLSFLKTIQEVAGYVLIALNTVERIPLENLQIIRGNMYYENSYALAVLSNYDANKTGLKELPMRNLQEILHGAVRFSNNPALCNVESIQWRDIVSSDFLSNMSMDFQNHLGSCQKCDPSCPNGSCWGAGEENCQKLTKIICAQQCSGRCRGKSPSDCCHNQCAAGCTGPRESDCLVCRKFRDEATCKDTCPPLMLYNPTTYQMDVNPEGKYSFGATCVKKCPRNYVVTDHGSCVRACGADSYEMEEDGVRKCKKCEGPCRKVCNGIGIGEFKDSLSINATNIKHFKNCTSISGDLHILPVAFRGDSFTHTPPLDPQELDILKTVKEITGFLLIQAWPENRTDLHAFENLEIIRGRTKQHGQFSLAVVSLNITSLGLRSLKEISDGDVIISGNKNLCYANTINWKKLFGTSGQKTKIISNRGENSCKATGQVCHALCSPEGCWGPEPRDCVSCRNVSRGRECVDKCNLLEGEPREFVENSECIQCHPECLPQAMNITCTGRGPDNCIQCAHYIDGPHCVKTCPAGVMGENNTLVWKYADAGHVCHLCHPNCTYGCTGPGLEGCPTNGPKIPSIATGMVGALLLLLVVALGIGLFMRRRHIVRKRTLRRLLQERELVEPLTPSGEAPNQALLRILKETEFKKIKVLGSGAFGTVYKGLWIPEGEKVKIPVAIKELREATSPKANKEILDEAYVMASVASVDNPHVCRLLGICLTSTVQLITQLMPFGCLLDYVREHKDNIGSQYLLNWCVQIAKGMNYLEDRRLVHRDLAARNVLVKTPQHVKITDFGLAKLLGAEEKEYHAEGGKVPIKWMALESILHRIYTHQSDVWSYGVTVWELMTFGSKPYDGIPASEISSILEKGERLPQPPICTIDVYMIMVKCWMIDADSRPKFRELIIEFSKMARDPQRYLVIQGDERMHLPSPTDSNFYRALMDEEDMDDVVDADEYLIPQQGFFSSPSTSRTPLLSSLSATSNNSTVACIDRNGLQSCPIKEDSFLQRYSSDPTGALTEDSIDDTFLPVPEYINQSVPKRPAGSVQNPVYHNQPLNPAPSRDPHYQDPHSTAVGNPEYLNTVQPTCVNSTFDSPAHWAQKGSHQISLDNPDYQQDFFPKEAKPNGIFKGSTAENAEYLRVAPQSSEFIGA
UniProt P00533, 25-1210: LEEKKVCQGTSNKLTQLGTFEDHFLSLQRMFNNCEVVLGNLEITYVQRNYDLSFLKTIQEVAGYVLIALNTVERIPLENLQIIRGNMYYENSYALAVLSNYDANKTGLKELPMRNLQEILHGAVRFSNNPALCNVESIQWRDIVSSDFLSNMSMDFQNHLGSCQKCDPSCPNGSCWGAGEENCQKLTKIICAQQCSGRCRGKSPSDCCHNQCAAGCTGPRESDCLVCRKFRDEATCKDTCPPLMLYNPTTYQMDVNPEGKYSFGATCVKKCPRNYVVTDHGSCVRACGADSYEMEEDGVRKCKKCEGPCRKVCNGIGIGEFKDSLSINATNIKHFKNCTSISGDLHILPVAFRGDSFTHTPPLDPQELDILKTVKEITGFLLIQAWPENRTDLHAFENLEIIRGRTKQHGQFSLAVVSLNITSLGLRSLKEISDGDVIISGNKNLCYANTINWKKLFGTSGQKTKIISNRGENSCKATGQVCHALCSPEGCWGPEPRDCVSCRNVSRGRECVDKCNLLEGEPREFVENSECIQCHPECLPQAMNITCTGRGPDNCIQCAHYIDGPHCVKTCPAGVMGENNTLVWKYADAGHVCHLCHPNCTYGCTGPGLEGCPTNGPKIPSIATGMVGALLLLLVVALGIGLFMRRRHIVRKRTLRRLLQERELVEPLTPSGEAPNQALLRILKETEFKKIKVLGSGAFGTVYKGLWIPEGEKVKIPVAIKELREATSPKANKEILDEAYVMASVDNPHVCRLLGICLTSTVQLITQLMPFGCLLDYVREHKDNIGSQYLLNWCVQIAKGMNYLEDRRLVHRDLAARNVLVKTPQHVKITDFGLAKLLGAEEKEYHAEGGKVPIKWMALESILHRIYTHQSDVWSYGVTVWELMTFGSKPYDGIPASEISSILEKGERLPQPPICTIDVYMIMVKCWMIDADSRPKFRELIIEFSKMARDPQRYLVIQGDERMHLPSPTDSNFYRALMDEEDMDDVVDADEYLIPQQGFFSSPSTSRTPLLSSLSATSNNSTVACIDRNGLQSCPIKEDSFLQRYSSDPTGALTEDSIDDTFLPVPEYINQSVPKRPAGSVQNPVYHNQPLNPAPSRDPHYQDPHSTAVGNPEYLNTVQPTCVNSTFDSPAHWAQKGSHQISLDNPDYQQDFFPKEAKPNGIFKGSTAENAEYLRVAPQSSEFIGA
UniProt P00533, 25-1210 T790M/L858R: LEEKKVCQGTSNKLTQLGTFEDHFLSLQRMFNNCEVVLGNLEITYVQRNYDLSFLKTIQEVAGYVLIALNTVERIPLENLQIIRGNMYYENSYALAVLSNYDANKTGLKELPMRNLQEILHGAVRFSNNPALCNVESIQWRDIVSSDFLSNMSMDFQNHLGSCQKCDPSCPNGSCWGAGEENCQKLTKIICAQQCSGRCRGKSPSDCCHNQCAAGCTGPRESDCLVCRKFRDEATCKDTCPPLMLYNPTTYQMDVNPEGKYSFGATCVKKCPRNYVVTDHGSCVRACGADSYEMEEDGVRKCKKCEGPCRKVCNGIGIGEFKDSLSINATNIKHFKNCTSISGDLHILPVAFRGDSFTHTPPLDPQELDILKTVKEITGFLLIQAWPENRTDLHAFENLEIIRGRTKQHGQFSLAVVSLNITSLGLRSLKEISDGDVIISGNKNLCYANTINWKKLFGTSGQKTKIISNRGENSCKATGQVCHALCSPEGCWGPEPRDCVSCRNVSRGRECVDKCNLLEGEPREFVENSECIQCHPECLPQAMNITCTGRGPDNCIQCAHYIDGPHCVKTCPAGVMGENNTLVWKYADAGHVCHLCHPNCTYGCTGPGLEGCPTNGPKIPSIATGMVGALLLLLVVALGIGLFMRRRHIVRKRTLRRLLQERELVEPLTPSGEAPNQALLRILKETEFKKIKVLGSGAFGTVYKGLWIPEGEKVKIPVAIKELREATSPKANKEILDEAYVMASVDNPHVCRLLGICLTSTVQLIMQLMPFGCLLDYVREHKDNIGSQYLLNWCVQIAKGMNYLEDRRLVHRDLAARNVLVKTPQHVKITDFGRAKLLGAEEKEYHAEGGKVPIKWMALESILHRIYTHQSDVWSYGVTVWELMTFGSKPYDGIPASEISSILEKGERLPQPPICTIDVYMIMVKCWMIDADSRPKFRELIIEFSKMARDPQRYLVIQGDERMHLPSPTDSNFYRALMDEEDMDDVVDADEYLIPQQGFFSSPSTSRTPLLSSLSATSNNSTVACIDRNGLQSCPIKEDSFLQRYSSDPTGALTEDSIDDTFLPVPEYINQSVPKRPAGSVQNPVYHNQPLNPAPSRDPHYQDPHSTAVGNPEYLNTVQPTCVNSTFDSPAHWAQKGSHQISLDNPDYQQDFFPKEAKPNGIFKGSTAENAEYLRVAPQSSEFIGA
UniProt P00533, with tags, fused parts or gaps INS773NPH: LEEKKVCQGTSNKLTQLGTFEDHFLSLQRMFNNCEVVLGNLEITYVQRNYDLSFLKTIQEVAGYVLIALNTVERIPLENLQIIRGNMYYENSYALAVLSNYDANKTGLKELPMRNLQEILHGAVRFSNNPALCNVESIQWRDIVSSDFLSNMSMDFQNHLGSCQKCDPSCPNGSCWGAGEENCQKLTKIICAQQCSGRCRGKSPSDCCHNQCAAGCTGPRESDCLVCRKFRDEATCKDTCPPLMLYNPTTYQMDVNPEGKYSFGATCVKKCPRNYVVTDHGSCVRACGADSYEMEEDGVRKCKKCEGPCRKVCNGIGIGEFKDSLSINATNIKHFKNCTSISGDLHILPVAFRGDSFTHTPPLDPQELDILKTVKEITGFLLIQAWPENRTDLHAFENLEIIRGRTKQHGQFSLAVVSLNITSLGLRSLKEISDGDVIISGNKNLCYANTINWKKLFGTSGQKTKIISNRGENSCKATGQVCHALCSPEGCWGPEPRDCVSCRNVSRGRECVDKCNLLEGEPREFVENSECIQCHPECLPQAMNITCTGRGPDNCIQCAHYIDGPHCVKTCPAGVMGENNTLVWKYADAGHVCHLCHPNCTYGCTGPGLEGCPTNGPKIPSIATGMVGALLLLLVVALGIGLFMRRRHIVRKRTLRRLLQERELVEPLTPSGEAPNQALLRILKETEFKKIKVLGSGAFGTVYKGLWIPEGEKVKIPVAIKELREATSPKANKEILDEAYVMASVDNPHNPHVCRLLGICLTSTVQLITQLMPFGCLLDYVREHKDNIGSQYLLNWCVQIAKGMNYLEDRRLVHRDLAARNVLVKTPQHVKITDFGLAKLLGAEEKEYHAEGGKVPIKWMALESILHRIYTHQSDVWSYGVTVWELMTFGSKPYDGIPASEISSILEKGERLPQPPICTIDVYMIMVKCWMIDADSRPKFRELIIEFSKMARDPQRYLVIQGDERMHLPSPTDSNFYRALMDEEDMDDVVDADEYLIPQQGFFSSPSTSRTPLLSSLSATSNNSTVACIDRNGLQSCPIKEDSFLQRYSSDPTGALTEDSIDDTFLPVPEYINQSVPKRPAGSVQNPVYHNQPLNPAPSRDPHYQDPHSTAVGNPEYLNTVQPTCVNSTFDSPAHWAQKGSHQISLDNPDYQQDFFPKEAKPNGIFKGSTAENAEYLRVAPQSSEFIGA

Legend:
Type in all cases: cell-based
[1] = target: T1, human EGFR exon 20 V769_D770insASV (Homo sapiens, UniProt P00533, INS769ASV); assay: EGFR Exon20 ASV insertion cellular phosphorylation inhibition (MSD pEGFR Y1068/total EGFR); details: Ba/F3 EGFR ASV ins cells, 4 h compound, p-EGFR(Y1068)/total EGFR;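 also: electrochemiluminescent readout on an MSD SECTOR Imager, IL3-independent transduced cells in medium with 1% FBS, compound concentration series at 37 °C and 5% CO2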
T1 construct: expressed in transfected cells; host or cells: Ba/F3 (DSMZ ACC-300), lentiviral transduction, puromycin selection, IL3 depletion

WT EGFR = target: T2, WT EGFR (Homo sapiens, UniProt P00533); assay: WT EGFR cellular phosphorylation inhibition in A-431 (hEGF stimulated, MSD); details: A431 cells, 4 h compound, then 100 ng/ml hEGF 10 min;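 also: electrochemiluminescence read-out of EGFR Tyr1068 phosphorylation expressed as ratio to total EGFR, cells kept in medium with 1% FBS, compounds tested as a concentration series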
T2 construct: host or cells: A-431

EGFR L858R&T790M = target: T3, EGFR L858R&T790M (Homo sapiens, UniProt P00533, L858R/T790M); assay: EGFR L858R and T790M cellular phosphorylation inhibition in NCI-H1975 (MSD); details: NCI-H1975 cells, 4 h compound, p-EGFR(Y1068)/total EGFR; read-out: EGFR L858R and T790M mutation IC50;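 also: phosphorylated and total EGFR detected by electrochemiluminescence, cells exposed to compound in medium containing 1% FBS at 37 °C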
T3 construct: host or cells: NCI-H1975

[2] = target: T4, human EGFR exon 20 H773_V774insNPH (Homo sapiens, UniProt P00533, INS773NPH); assay: EGFR Exon20 NPH insertion cellular phosphorylation inhibition (MSD pEGFR Y1068/total EGFR); details: Ba/F3 EGFR NPH ins cells, 4 h compound, p-EGFR(Y1068)/total EGFR;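 also: IL3-independent Ba/F3 cells with constitutively phosphorylated EGFR, compound exposure at 37 °C under 5% CO2, electrochemiluminescent MSD measurement of the p-EGFR to total EGFR ratio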
T4 construct: host or cells: Ba/F3

IC50 [1]: 291 nM
IC50 (WT EGFR): 505 nM
IC50 (EGFR L858R&T790M): 5 nM
IC50 [2]: 368 nM
Structure (SMILES): Cc1cc(C(=O)Nc2nc3cccc(Cl)c3n2[C@@H]2CCCCN(C(=O)/C=C/CN(C)C)C2)ccn1 [EGF816, reference compound]
